System: human DRD2 receptor
Assay: GRAB-GDA3.0 fluorescence response in HEK293T cells, drug perfusion
Assay type: cell-based

Q: How did the “activation or block of GRAB-GDA3.0” value turn out when `CCCN1CCC[C@@H]2Cc3n[nH]cc3C[C@H]21` [quinpirole] was run?
A: The value was “activated”.

From patent publication US20200400567A1, “FUSION POLYPEPTIDE” (PEKING UNIVERSITY, priority 2017, published 2020)
